Results: patent US20060079453A1, “Hla binding peptides and their uses” (priority 2002, published 2006)
Where “and” joins values, the source holds several entries; their conditions need not be identical. Equal entries are not always repeated. Where two headings read alike, the source gives them in different places.

Sequences of proteins named here, by UniProt entry; tags and fusion partners are left off. Residues count along the entry.
UniProt Q30154, 30-266: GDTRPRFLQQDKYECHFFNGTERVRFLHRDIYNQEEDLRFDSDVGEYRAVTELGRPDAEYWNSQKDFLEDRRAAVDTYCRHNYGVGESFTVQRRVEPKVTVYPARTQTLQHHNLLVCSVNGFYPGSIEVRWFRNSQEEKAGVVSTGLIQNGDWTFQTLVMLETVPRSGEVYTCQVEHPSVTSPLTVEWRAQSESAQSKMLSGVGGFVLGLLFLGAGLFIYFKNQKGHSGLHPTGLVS

Key:
[1] = molecular target: HLA-A*0202 (Homo sapiens, UniProt P04439, D140Y/D185E/D98H/E176V/E277Q/G131W/G231S/I119L/I121R/I166T/I218V/L180W/L300P/L318F/N151K/N90K/P208A/P217A/Q67R/Q86G/Q94H/R138H/R169H/T345S); assay: biochemical; format: binding
[2] = molecular target: HLA-A*0201 (Homo sapiens, UniProt P04439, D140Y/D185E/D98H/E176V/E277Q/G131W/G231S/I119V/I121R/I166T/I218V/L300P/L318F/N151K/N90K/P208A/P217A/Q86G/Q94H/R138H/R169H/T345S); assay: biochemical; format: binding; conditions: A*0201 binding affinity (expressed as an IC50)
[3] = molecular target: HLA-A*0203 (Homo sapiens, UniProt P04439, A173T/D140Y/D185E/D98H/E277Q/G131W/G231S/I119V/I121R/I166T/I218V/L180W/L300P/L318F/N151K/N90K/P208A/P217A/Q86G/Q94H/R138H/R169H/T345S); assay: biochemical; format: binding; conditions: A*0203 binding affinity (expressed as an IC50)
[4] = molecular target: HLA-DR DRB1*0405 (DR4) (Homo sapiens, UniProt P01903+P01911, A100R/A169T/D86S/F76Y/I96L/K127E/L162R/M171V/N62H/P40V/Q125Y/R42H/S133A/S149N/S66Y/V115G/V209L/W38E); assay: biochemical; format: binding; conditions: DRB1 *0405
[5] = molecular target: HLA-DR DRB1*1302 (DR13) (Homo sapiens, UniProt P01903+P01911, A100E/A169T/K41T/L162R/M171V/P40S/Q125H/Q178H/Q39Y/Q99D/R42S/S66N/T262R/V115G/W38E/Y61H); assay: biochemical; format: binding; conditions: DRBI *1302
[6] = molecular target: HLA-A*6802 (Homo sapiens, UniProt P04439, A269V/D140Y/D185E/E176V/E277Q/E87N/F33Y/G231S/I121R/I166T/I218V/L180W/L300P/L318F/N151K/P208A/P217A/Q86R/R138H/R169H/S129P/T345S/V36M); assay: biochemical; format: binding; conditions: A*6802 binding affinity (expressed as an IC50)
[7] = molecular target: HLA-DR DRB1*0101 (DR1) (Homo sapiens, UniProt P01903+P01911, A100R/D57E/F55L/F60I/F76Y/I96L/L162R/M171V/P40L/Q125E/R42F/V115G/Y59C); assay: biochemical; format: binding; conditions: DRB1 *0101
[8] = molecular target: HLA-DR DRB1*0401 (DR4) (Homo sapiens, UniProt P01903+P01911, A100K/A169T/F76Y/I96L/K127E/L162R/M171V/N62H/P40V/Q125Y/R42H/S133A/S149N/S66Y/V115G/V209L/W38E); assay: biochemical; format: binding; conditions: DRB1 *0401
[9] = molecular target: HLA-DR DRB1*0701 (DR7) (Homo sapiens, UniProt P01903+P01911, A100R/A102G/A103Q/D57E/D86V/E43K/F76Y/K127E/L162R/M171V/P40G/Q125H/Q99D/R33Q/R42Y/R54Q/S133A/S66F/T210M/V115G/Y107V/Y59L/Y89S); assay: biochemical; format: binding; conditions: DRB1 *0701
[10] = molecular target: HLA-DR DRB1*1101 (DR11) (Homo sapiens, UniProt P01903+P01911, A100R/A169T/A87E/I96F/K41T/L162R/M171V/P40S/Q125H/Q178H/Q39Y/Q99D/R42S/S66Y/T262R/V115G/W38E); assay: biochemical; format: binding; conditions: DRB1 *1101
[11] = molecular target: HLA-DR DRB1*1501 (DR15) (Homo sapiens, UniProt P01903+P01911); assay: biochemical; format: binding; conditions: DRBI *1501
[12] = molecular target: HLA-DR DRB4*0101 (DR53) (Homo sapiens, UniProt P01903+P13762, G164S); assay: biochemical; format: binding; conditions: DRB4 *0101
[13] = molecular target: HLA-DR DRB5*0101 (DR51) (Homo sapiens, UniProt P01903+Q30154); assay: biochemical; format: binding; conditions: DRB5 *0101
[14] = molecular target: HLA-A*2902 (Homo sapiens, UniProt P04439, A270S/D101N/D185E/E176V/E277Q/E87Q/F33T/G231S/H175R/I121M/I218V/I322F/K168Q/L300P/L318F/M331R/P208A/P217A/Q86L/T323A/T345S/V100A/V358M); assay: MHC molecular binding / Capture assay, IC50: A*2902; conditions: read-out: Binding affinity to A*2902 (expressed as an IC50)
[15] = molecular target: HLA-A*3002 (Homo sapiens, UniProt P04439, D101N/D140H/D185E/E176R/F33S/G80R/H175R/K168Q/Q94H/R138E/R41S/V100E); format: binding; conditions: read-out: Binding affinity to A*3002 (expressed as an IC50)
[16] = molecular target: HLA-A*0101 (Homo sapiens, UniProt P04439, A114D/A174V/A182V/D101N/D185E/E176A/E190D/L180R/Q94H/R68K/S129P/T187R/V100A/V91M/W191G); conditions: read-out: Binding affinity to A*0101 (expressed as an IC50)
[17] = A*0202 binding affinity (expressed as an IC50)

CC(C)C[C@H](NC(=O)[C@H](C)N)C(=O)N[C@@H](Cc1ccccc1)C(=O)N1CCC[C@H]1C(=O)N1CCC[C@H]1C(=O)N[C@@H](CCC(=O)O)C(=O)NCC(=O)N[C@H](C(=O)N[C@@H](CO)C(=O)N[C@H](C(=O)O)C(C)C)C(C)C
IC50 [1, 17]: 1.1 nM

CSCC[C@H](NC(=O)[C@H](CC(C)C)NC(=O)[C@@H](N)CC(=O)O)C(=O)N[C@@H](CC(C)C)C(=O)N[C@@H](CC(C)C)C(=O)N[C@@H](CCCNC(=N)N)C(=O)N[C@@H](CC(C)C)C(=O)N[C@@H](CO)C(=O)N[C@@H](CCC(=O)O)C(=O)N1CCC[C@H]1C(=O)N[C@H](C(=O)O)C(C)C
IC50 [2]: 69 nM
IC50 [1, 17]: 66 nM
IC50 [3]: 32 nM

CC[C@H](C)[C@H](NC(=O)[C@H](CCC(=O)O)NC(=O)[C@H](CO)NC(=O)[C@H](CC(C)C)NC(=O)[C@@H]1CCCN1C(=O)[C@H](CCCCN)NC(=O)[C@H](CCCCN)NC(=O)[C@@H](NC(=O)[C@H](CCCNC(=N)N)NC(=O)[C@H](CCC(=O)O)NC(=O)[C@@H](N)CCC(=O)O)C(C)C)C(=O)N[C@H](C(=O)N[C@H](C(=O)N[C@@H](CCCNC(=N)N)C(=O)N[C@@H](CS)C(=O)O)[C@@H](C)CC)[C@@H](C)O
IC50 [4]: 1470 nM
IC50 [5]: 8920 nM

CC(C)C[C@H](NC(=O)CN)C(=O)N[C@@H](Cc1c[nH]cn1)C(=O)NCC(=O)N[C@@H](CCC(N)=O)C(=O)N[C@@H](CC(=O)O)C(=O)N[C@@H](CC(C)C)C(=O)N[C@@H](Cc1ccccc1)C(=O)NCC(=O)N[C@H](C(=O)O)C(C)C
IC50 [6]: > 80000 nM

CC(C)C[C@H](NC(=O)CNC(=O)[C@H](Cc1ccc(O)cc1)NC(=O)[C@@H](NC(=O)[C@@H](N)CCCCN)C(C)C)C(=O)N[C@@H](CO)C(=O)N[C@@H](C)C(=O)N[C@@H](Cc1ccccc1)C(=O)N[C@H](C(=O)O)C(C)C
IC50 [2]: 33 nM

CC(C)C[C@H](NC(=O)[C@H](C)NC(=O)[C@H](CC(C)C)NC(=O)[C@@H](N)CC(C)C)C(=O)N[C@@H](Cc1ccccc1)C(=O)N1CCC[C@H]1C(=O)N1CCC[C@H]1C(=O)N[C@@H](CCC(=O)O)C(=O)NCC(=O)N[C@H](C(=O)O)C(C)C
IC50 [1, 17]: 0.73 nM

CC[C@H](C)[C@H](NC(=O)[C@H](CCC(=O)O)NC(=O)[C@H](CCC(N)=O)NC(=O)[C@H](CCCNC(=N)N)NC(=O)[C@H](CCCCN)NC(=O)[C@H](CCCCN)NC(=O)[C@H](CO)NC(=O)[C@H](Cc1ccc(O)cc1)NC(=O)[C@H](CC(C)C)NC(=O)[C@@H](N)CC(C)C)C(=O)O
IC50 [1]: 382 nM

CC[C@H](C)[C@H](NC(=O)[C@H](CC(C)C)NC(=O)[C@@H](NC(=O)[C@H](CCC(=O)O)NC(=O)[C@@H](N)CC(N)=O)[C@@H](C)CC)C(=O)N[C@@H](CCCNC(=N)N)C(=O)N[C@@H](CS)C(=O)N[C@H](C(=O)N[C@H](C(=O)N[C@@H](CS)C(=O)N[C@@H](CCC(N)=O)C(=O)N[C@@H](CCCNC(=N)N)C(=O)N1CCC[C@H]1C(=O)N[C@@H](CC(C)C)C(=O)N[C@@H](CS)C(=O)O)[C@@H](C)CC)[C@@H](C)CC
IC50 [7]: 7940 nM and 11000 nM
IC50 [8]: 11700 nM and 14100 nM
IC50 [4]: 7700 nM and 4620 nM
IC50 [9]: 16900 nM and 18900 nM
IC50 [10]: 20800 nM and 16100 nM
IC50 [5]: 7170 nM and 10200 nM
IC50 [11]: 18900 nM and 8180 nM
IC50 [12]: 883 nM and 372 nM
IC50 [13]: > 29800 nM

CC(C)C[C@H](NC(=O)[C@@H]1CCCN1)C(=O)N[C@H](C(=O)N[C@@H](CS)C(=O)N[C@@H](CC(N)=O)C(=O)NCC(=O)N[C@H](C(=O)N[C@@H](CC(C)C)C(=O)N[C@@H](CCC(N)=O)C(=O)NCC(=O)N[C@H](C(=O)O)C(C)C)C(C)C)C(C)C
IC50 [2]: 91 nM and 26 nM
IC50 [3]: 36 nM

CSCC[C@H](NC(=O)[C@H](CC(C)C)NC(=O)CNC(=O)[C@@H]1CCCN1C(=O)CNC(=O)[C@@H]1CCCN1C(=O)CNC(=O)[C@H](CC(C)C)NC(=O)[C@@H](N)CCC(N)=O)C(=O)N[C@@H](CCC(=O)O)C(=O)N[C@H](C(=O)O)C(C)C
IC50 [2]: 194 nM

CC(C)C[C@H](NC(=O)[C@H](CO)NC(=O)[C@H](CC(C)C)NC(=O)[C@@H](N)CO)C(=O)NCC(=O)N[C@@H](Cc1ccccc1)C(=O)N[C@@H](CC(C)C)C(=O)N[C@@H](Cc1ccccc1)C(=O)N[C@@H](CC(C)C)C(=O)N[C@H](C(=O)O)C(C)C
IC50 [2]: 1.9 nM

CC(C)C[C@H](NC(=O)[C@@H](NC(=O)[C@@H](NC(=O)[C@H](Cc1ccccc1)NC(=O)[C@H](CCCCN)NC(=O)[C@H](CC(C)C)NC(=O)[C@H](CCC(=O)O)NC(=O)[C@H](CCCCN)NC(=O)[C@H](C)NC(=O)[C@H](CC(C)C)NC(=O)[C@@H](N)C(C)C)C(C)C)[C@@H](C)O)C(=O)O
IC50 [3]: 194 nM

CC[C@H](C)[C@H](NC(=O)[C@@H](NC(=O)[C@H](CCC(=O)O)NC(=O)[C@H](CC(N)=O)NC(=O)[C@H](Cc1c[nH]c2ccccc12)NC(=O)CNC(=O)[C@@H](NC(=O)[C@H](CO)NC(=O)[C@H](CO)NC(=O)[C@H](CO)NC(=O)[C@H](CC(=O)O)NC(=O)[C@H](CCC(N)=O)NC(=O)[C@@H](N)CCCNC(=N)N)[C@@H](C)O)[C@@H](C)O)C(=O)N[C@H](C(=O)N[C@@H](CCC(=O)O)C(=O)O)C(C)C [RQDSSSTGWNETIVE]
IC50 [7]: > 102000 nM
IC50 [4]: 40800 nM
IC50 [9]: 36300 nM
IC50 [10]: > 42600 nM
IC50 [11]: > 190000 nM

IMNIILMTLY
IC50 [14]: 1.7 nM
IC50 [15]: 1.8 nM
IC50 [16]: 150 nM

ISDYRHIYQY
IC50 [16]: 28 nM

ISDYRHYQY
IC50 [14]: 37 nM
IC50 [15]: 382 nM
IC50 [16]: 13 nM

LTDLLILRCY
IC50 [16]: 64 nM

LTDLLIRCY
IC50 [16]: 13 nM

RFHNIRGRW
IC50 [16]: 52900 nM

SSPLENNFY
IC50 [16]: 117 nM

YSDIIRELRYY
IC50 [16]: 20 nM

YSDIRELRYY
IC50 [15]: 456 nM
IC50 [16]: 9.4 nM
